Literature values in patent publication US11253508B2, “PPARy agonist for treatment of progressive supranuclear palsy” (Coherus Biosciences, Inc., priority 2017, dated 2022).

Conditions: in words; cited from earlier work

## CN(CCOc1ccc(CC2SC(=O)NC2=O)cc1)c1ccccn1 (stereo not shown) [rosiglitazone, reference compound]
  crossing of the blood brain barrier: does not cross the blood-brain-barrier
